Tests used:
APJ receptor = APJ receptor (Homo sapiens (Human), UniProt P35414); conditions: relative to apelin-36; cited from earlier work
[1] = biological target: human APJ receptor expressed in the CHO cell line (Homo sapiens (Human), UniProt P35414); conditions: APJ receptor expressed alone
[2] = biological target: human APJ-AT1R (angiotensin Type 1) double stable CHO cell line (Homo sapiens (Human), UniProt P35414); assay: IP1 accumulation (TR-FRET), APJ-AT1R double stable CHO cell line; assay type: cell-based; conditions: AngII concentration range with fixed concentration of APJ agonist; APJ and AT1R co-expressed
Procedure: The plate was sealed and incubated for 1 hour.

| Substance | in vitro affinity to the APJ receptor, fold higher than apelin-36 (APJ receptor) [fold] | cooperativity on AngII-induced IP1 response [1] | cooperativity on AngII-induced IP1 response [2] |
| --- | --- | --- | --- |
| Apelin-13 | ~3.5 |  |  |
| pyr apelin-13 |  | no positive cooperativity observed | induces the positive cooperativity on the AT1R |

Source: patent publication US11807624B2, “Substituted pyrimidinones as agonists of the APJ receptor” (AMGEN INC., priority 2018, dated 2023)
